US6506746B2, “Method for treating cognitive dysfunction” (Eli Lilly and Company, priority 1997, dated 2003)

Tested on: rats
Details: overdose

Q: Which salivation does the source give for `Cc1cc2c(s1)Nc1ccccc1N=C2N1CCN(C)CC1` [2-methyl-4-(4-methyl-1-piperazinyl)-10H-thieno[2,3-b][1,5]benzodiazepine] here?
A: Its salivation is “significant salivation”.
